Assay: storage stabilization of molten 3,4-dichloroaniline at 110° C.
Details: 0.35 wt. % additive
Experimental: Round bottom drying ampuls of 20 ml capacity were dried by heating and were then cooled under nitrogen. Ten ml of test samples consisting of molten 3,4-dichloroaniline containing candidate stabilizers were pipetted into the ampuls which were sealed under nitrogen and stored in a 110° C. oven. Periodically an ampul of each sample was removed from the oven and evaluated.

NCCO [ethanolamine]
Color (3 days): Lt yellow
Color (60 days): Yellow
